# Experimental data published in patent US6437002B1, “Agent for preventing and treating skin diseases” (Showa Denko K.K., priority 1998, dated 2002).
# Assay: Test (B): durability (activity duration) on storage
# Assay type: physicochemical
# Details: 0.5% in water (oil-soluble: emulsion with 2% Tween 80), stored at 40° C. for one month
# Method: An ascorbic acid derivative was dissolved in water to have a concentration of 0.5% (in the case of an oil-soluble SF-621 US material, it was emulsion-dispersed in an ordinary manner by adding 2% of a surfactant Tween 80 (trademark)) and stored at 40° C. for one month. Then the residual amount of the derivative was measured by the HPLC method described later in the Examples. When the residual ratio was 90% or more, the evaluation was “+” and when it was less than 90%, the evaluation was “−”.
# An ascorbic acid derivative was dissolved in water to have a concentration of 0.5% (in the case of an oil-soluble material, it was emulsion-dispersed in an ordinary manner by adding 2% of a surfactant Tween 80 (trademark)) and stored at 40° C. for one month. Then the residual amount of the derivative was measured by the HPLC method. When the residual ratio was 90% or more, the evaluation was “+” and when it was less than 90%, the evaluation was “−”.
substance,measurement,value
2-Palmitoyloxy-L-ascorbic acid-2-phosphate,Test (B): durability (residual ratio of the derivative by HPLC),"+ (When the residual ratio was 90% or more, the evaluation was “+”)"
